We go through one compound from patent US10555936B2, “Chemotherapeutic compositions and methods for treating human gliomas” (The Methodist Hospital, priority 2011, dated 2020).

Test [1] concerns BT-111 cells. The test is described as follows: Mitochondrial membrane potential, Mitotracker Red. It counts as cell-based, human.
Test [2] has as its system BT116 glioblastoma. The experiment in a line: Intracranial human glioblastoma model. As to the method: Postglenoid Foramen Injection. […] Some five minutes after injection and recovery from the anesthetic, the majority of the mice were walking around and were phenotypically normal within an hour. In the main study 40 SCID immuno-deficient mice were injected via the postglenoid foramen with glioblastoma in Matrigel™:tissue culture medium, 4:6, to a final cell load of 2,500,000 cells per animal; according to Iwami et al., (2012). […] A number of the SCID mice died following the glioma injections or had deficits in the first few weeks following the initial injection. After >3 months, 24 animals were asymptomatic, and 22 animals were split into two groups; MP-MUS treated and Saline treated. The remaining pair was sacrificed and their brains were fixed/waxed and archived as pre-treatment controls.
Drug Therapy and Symptom Monitoring. On day 115 mice are then given either 200 μL saline or 200 μL of 1 mg/mL MP-MUS in saline, via tail-vein injection. The same treatment was repeated on days 122 and 129.
The mice were initially placed in groups of 2×4 and 1×3 animals and were individually every 1-3 days. The mice were assessed for the onset of neurological symptoms caused by an intracranial tumor throughout the study. Symptoms in the mice that require euthanasia were sudden weight loss; >2 grams in 7 days, deficits of movement that caused the animal to be unable to drink/feed and immobility. […]

Test [3] has as its system human glioblastoma multiforme xenograft (BT111). The test is described as follows: Human GBM xenograft, nude mouse flank model. The text has this:
FIG. 31A and FIG. 31B show the effects of 24-hr MP-MUS treatment. A statistically-significant drop in tumor volume, about 50%, was observed;
FIG. 33A and FIG. 33B show GBM from untreated and MP-MUS treated tumors. While the untreated cells appeared just like parental BT111, the MP-MUS-treated cells were in poor condition, as evidenced by a lot of cell debris (even though they had already been washed);
Statistical difference in on the top, first p<0.05, the p<0.005, and finally p<0.0005;
FIG. 35 show a different plot (untreated minus treated average) of the data.
. The distribution of the untreated mice is Gaussian (i.e., normal), but the biggest one in the MP-MUS treated makes it non-Gaussian;
In the previous examples, it was shown that MP-MUS can successfully treat human glioblastoma multiforme xenograft cultures in a nude mouse flank model.

For test [4], the system named is BT-111 cells. The test is described as follows: LDH growth assay, primary GBM cells. As to conditions: BT-111 primary GBM cells. As to the method:
Primary GBM. Primary human glioblastoma cells were obtained from surgical theater, and subsequently grown in MEM with penicillin/streptomycin and 10% FBS (Invitrogen Corp., Carlsbad, Calif., USA). After two or more weeks of growth and splitting, 250 μL of resulting cells (at a density of 1×10^4 cells per mL) were plated into 96-well microtiter plates (Corning, Inc., New York City, N.Y., USA), and grown to confluence by incubation at 37° C. for at least 24 hr.
After 24 hrs, cells were treated with 20 μL/mL of ethanol, containing either the test drugs, inhibitors, or no additives (internal controls).
LDH Assay. After the XTT levels were determined the cells were washed using 2×250 μL of 5 mM glucose/3 mM Tris/30 mM HEPES/10 mM NaCl buffer (pH 7.4). The levels of lactate dehydrogenase activity in the presence of detergent (Korzeniewski and Callewaert, 1983; Decker and Lohmann-Matthes, 1988) were then assayed in each well (Corning). The final assay mixture contained 100 μL of 110 mM lactate, 3.35 mM NAD^+, 350 μM resazurin (Sigma-Aldrich), and 2.2 units/mL of diaphorase in 5 mM glucose/3 mM Tris/30 mM HEPES/10 mM NaCl buffer (pH 7.4) and 0.45% TritonX-100. The resorufin formed was measured over the course of 15 min in a plate reader using at 530/25 nm excitation (ex) and 590/35 nm emission (em). […]

The test system of test [5] is BT-111 cells. The test is described as follows: XTT mitochondrial complex activity assay. The test is classed as cell-based, human. Conditions: read-out: concentration that abolished half of the mitochondrial complex activity; BT-111, XTT.
Another test deals with glioma cells. The experiment in a line: Mitochondrial proteins L11 and cytochrome c, antibody labeling. The method, then:
Antibody Labeling. Anti-mitochondrial ribosomal protein L11 rabbit antibody (ab74285) and Anti-cytochrome c antibody (ab13575) were obtained from Abcam (Cambridge, Mass., USA), and were visualized using labeled secondary antibodies; Alexa Fluor 594 goat anti-mouse IgG (A-11032) and Alexa Fluor 488 goat anti-rabbit IgG (A-11034) from Invitrogen. Permeabilized cells were blocked with 10% equine sera (Invitrogen) for 1 hr, washed in PBS/0.1% Triton X-100 and then incubated overnight with primary antibody (1:1000), washed twice in PBS/0.1% Triton X-100, incubated with the secondary's overnight and then washed twice more. DNA was stained using DAPI (Invitrogen) by incubation with 30 nM DAPI in PBS for 5 min, and then cells were washed twice in PBS/0.1% Triton X-100. The wells were then filled with 100 μL PBS/0.1% Triton X-100, and imaging performed.
3) Effect of MP-MUS (I) on Mitochondrial Proteins. […] It was evident that there was an increase in the levels of L11 (red), and cytochrome c (green), after only 24 hrs' incubation.
Extending the incubation to 48 hrs led to a loss of morphology, bloated nuclei, and a loss of defined mitochondria. Although the levels of L11 remained high, there was an almost complete loss of cytochrome c.

Test [6] has as its system BT116 glioblastoma. The test is described as follows: Human vimentin and CD3-ε histology of mouse brains. The method, then: We used the mildest conditions that would remove the majority of endogenous and added peroxidase activity, but not destroy the human vimentin. **For Vector Mouse Anti-Vimentin clone V9 and Santa Cruz Mouse anti-EGFR clone 528 the procedure was performed as shown. For CD3-ε, an extra step was used. CD3-ε was bound using an Arminian Hamster anti-CD3 epsilon antibody [145-2C11] conjugated with FITC, at a 1:10 dilution, for 1 hour. This was developed using a mouse anti-FITC antibody, Sigma clone FL-D6, at 1:100 dilution, for 1 hour. ***Either a HRP-linked horse anti-Mouse antibody to develop DAB or the HiDef™ HRP-polymer system was used, the latter of which gave better signal-to-noise ratio, but has a disadvantage of detecting some levels of endogenous IgG in SCID mice;
For vector mouse anti-vimentin clone #V9 and Santa Cruz Mouse anti-EGFR clone #528 the procedure was performed as shown. For CD3-ε, an extra step was used. CD3-ε was bound using an Arminian Hamster anti-CD3 epsilon antibody [145-2C11] conjugated with FITC, at a 1:10 dilution, for 1 hr. This was developed using a mouse anti-FITC antibody. Sigma clone FL-D6, at 1:100 dilution for 1 hr. Either an HRP-linked horse anti-Mouse antibody (to develop DAB), or the HiDef™ HRP-polymer system (which gives better signal-to-noise ratio, but may detect endogenous IgG in SCID mice) was used.
Detection of Vimentin and CD3-ε in MP-MUS Treated Animals. The same histological analysis was performed on three complete brains of the MP-MUS-treated animals. Their fixed brains were sectioned in groups of five, cut at 5 μm, with 3-4 individual brain sections per slide, the whole width of the brain. In MP-MUS #7, the inventors were unable to detect human vimentin in representative sections of the entire brain. At the injection site, there were voids, with some blood/blood breakdown products. CD3-ε cells, with low expression level were identifiable throughout the brain, but at lower density to those observed in the Saline treated mice. […]

Test [7] has as its system BT-111 cells. The test is described as follows: Measurement of DNA breaks. Conditions: compared with temozolomide. The method, then: ddTUNEL. A Tdt reaction buffer was prepared daily diluting a stock solution of 125 mM Tris-HCl, 1 M sodium cacodylate, 1.25 mg/mL BSA, pH 6.6 by 1:5 and diluting 1:25 a 25 mM cobalt chloride stock solution. The sample was twice washed in this solution and then ≈50 μL of reaction buffer containing 20 U/mL of Tdt and 250 nM of labeled-ddUTP was applied to each of the sections, which were then incubated in a humidified box overnight at room temperature or for 2 hrs at 37° C. Roche Biotin-16-ddUTP (Roche Diagnostics, Branford, Conn., USA) was used throughout and was visualized using Texas-Red labeled Avidin (Baskin et al., 2010a; Baskin et al., 2010b).
A paired sample underwent the same ligation following incubation with DNA polymerase/dNTP, so all overhanging ends were converted into blunt ends. […] It was clear that MP-MUS (I) was extremely good at inducing DNA breaks, far more so than the conventional methylation agent, temozolomide. […] Additionally, overhanging ends were the most common type of break observed.

Some results are limits rather than exact numbers.

Take `CC(C(=O)N(CCCl)CCCl)C1=CCN(C)CC1` (stereo not drawn): the “mitochondrial membrane potential reduction” value in the test on BT-111 cells [1] (12 μM for 24 hours) was “reduced by more than a third”. The “Mitotracker Red signal lowered to” value in the test on BT-111 cells [1] (12 μM for 24 hr) came out at 31%. The “drop in Mitotracker Red signal on co-incubation with selegiline” value with BT-111 cells [1] (12 μM for 24 hr with 10 μM selegiline) is “almost completely arrested”. Further, the “signal conserved on co-incubation with MAO-B inhibitor” value in the test on BT-111 cells [1] (12 μM, 24 hours, co-incubated with selegiline) worked out at 90%. For the same compound, the onset of symptoms in the test with BT116 glioblastoma [2] (Day 225, 11 mice, study ended Day 307) is 1st MP-MUS mouse symptomatic. Also, the “deaths in treated group” value in the test with BT116 glioblastoma [2] (n=11, 3 tail-vein injections of 200 μL 1 mg/mL, survival curve) is “only one animal in the MP-MUS treated group died”. In test [3] (24-hr MP-MUS treatment), the “drop in tumor volume” value is given as “about 50%”. For the same compound, the “tumor growth relative to the untreated rate” value in test [3] (after the first injection) is given as “less than 50%”. For the same compound, in test [3] (distribution in tumor size), the mice cured entry was “Two mice were cured” and the “treated mice with tumors less than the smallest untreated tumor” value is given as 90%. Moreover, the “condition of GBM cells cultured from treated tumors” value in test [3] (tumor extracted, minced, cultured) is given as “in poor condition”. Further, in test [3] (untreated minus treated average), the “tumor shrinkage after the first injection” value is recorded as 60%. Besides, in the test on BT-111 cells [4], the “LD50, fold lower than temozolomide” value was determined as 5 fold. In addition, the IC50 in the test with BT-111 cells [5] is 2 µM. The “levels of L11 and cytochrome c” value with glioma cells (24 hrs' incubation, 10 μM) was “increase in the levels of L11 (red), and cytochrome c (green)”. In addition, in the test with glioma cells (48 hrs incubation), the cell death is on record as more than 95%. Besides, the cytochrome c level entry in the test with glioma cells (48 hrs incubation, 10 μM) is “almost complete loss of cytochrome c”. For the same compound, the “vimentin-positive cells in one section near injection site” value with BT116 glioblastoma [6] (mouse MP-MUS #1) was less than 20 cells. For the same compound, the “human vimentin in sections of the entire brain” value in the test with BT116 glioblastoma [6] (mouse MP-MUS #7) is listed as “unable to detect human vimentin”. Further, in the test with BT116 glioblastoma [6] (mouse MP-MUS #8), the “human gliomal cells in left, non-injected hemisphere” value is given as “no human gliomal cells were identified”. For the same compound, the “induction of DNA breaks” value in the test with BT-111 cells [7] is listed as “extremely good at inducing DNA breaks”.
